# Antibody variant affinities, Ab-14 heavy chain, assay B

Values reported by Li et al. 2023, doi:10.1038/s41467-023-39022-2 (FLAb copy).

Target peptide (SARS-CoV-2 spike, HR2 region): PDVDLGDISGINAS

Each scFv is VH, a (GGGGS)3 linker, VL, as in the parent Ab-14, and differs from it in the CDRs of the heavy chain only.
VH: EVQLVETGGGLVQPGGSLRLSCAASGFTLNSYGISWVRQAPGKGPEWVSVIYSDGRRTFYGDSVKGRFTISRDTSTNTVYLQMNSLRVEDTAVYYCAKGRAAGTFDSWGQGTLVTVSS
VL: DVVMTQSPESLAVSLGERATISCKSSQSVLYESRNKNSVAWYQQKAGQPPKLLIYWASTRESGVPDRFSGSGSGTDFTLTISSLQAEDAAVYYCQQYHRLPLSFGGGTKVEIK

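This is the validation round: designs drawn from the data on random variants, tested in the same kind of assay. Their group label is 14H_GP_HC (GP: Gaussian process model; HC: hill climbing; a sequence that several methods proposed may carry one label only). Affinity was read by AlphaSeq, a pooled yeast mating assay with surface-displayed partners. Binding brings cells together so that they mate, and sequencing counts the barcode pairs among the diploids. Each replicate has its own calibration line, from reference interactions of the BCL2 family. There are six technical replicates.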

Variants are written as CDR1, CDR2 and CDR3 of the heavy chain (limits as in the source). Parent: GFTLNSYGIS, VIYSDGRRTFYGDSVK, GRAAGTFDS. Values are log10 of the apparent Kd in nM; lower means stronger binding. The mean shown is taken over the replicates in which the pair was detected. Where no diploid with the target was found in that replicate, the entry reads "n.d.": below detection, most likely a poor binder, though not proof of it. As a blank, each scFv also met three strains without target: over all heavy chain designs, 1% of these pairings were detected, typically at 2.08 and seldom below 0.84. For each scFv, signals with the empty controls are counted beside the result, with their mean in brackets.

| CDR-H1 | CDR-H2 | CDR-H3 | replicates, log10 nM | mean log10 Kd (nM) | empty controls |
|---|---|---|---|---|---|
| GFTLNQYGIS | VIYSDGRRTFYADSVK | GRAAVTFDS | n.d. n.d. n.d. n.d. n.d. n.d. | n.d. | 0 of 18 |
| GFTLDSYGIS | VIYSDGRRTFYTDSVK | GRLAGTFDS | 0.38 0.77 0.29 0.22 0.66 0.54 | 0.48 | 0 of 18 |
| GFTLESYGIS | VIYADGRRTFYGDIVK | GRAAGTFES | n.d. n.d. n.d. n.d. n.d. n.d. | n.d. | 0 of 18 |
| GFKLNSYGIS | VIYSDGRRTFYDDSVK | GQTAGTFDS | 0.52 n.d. 1.22 0.76 1.65 1.36 | 1.10 | 0 of 18 |
| GFTLNDYGIS | VIYSDGKRTQYCDSVK | GRAAGTFDS | 0.88 1.13 1.25 0.72 n.d. 2.17 | 1.23 | 0 of 18 |
| GFTLNEYGIS | VIYSDGRRTFYGDSVK | GRTAGTFTL | n.d. n.d. n.d. 0.97 0.94 n.d. | 0.96 | 0 of 18 |
| GFTLDSYGIS | VIYADGRRTFYGDSVK | GRAAGTFTS | n.d. n.d. 2.68 2.30 3.07 4.24 | 3.07 | 0 of 18 |
| GFQLNEYGIS | VIYSDGRRTFYGDSVK | GRTAGTFDD | 1.28 1.15 1.01 0.40 1.32 1.28 | 1.08 | 0 of 18 |
| GFTLNEYGIS | VIYSDGQRTFYSDSVK | GRAAGTFTS | n.d. n.d. n.d. n.d. n.d. n.d. | n.d. | 0 of 18 |
| GFELNSYGIS | VIYSDGRRTFYDDSVK | GQAAGTFDD | 2.07 2.81 n.d. 1.30 2.20 1.94 | 2.06 | 0 of 18 |
| GFTLNQYGIS | VIYSDGRRTFYSDSVK | GRQAGTFDS | 0.54 0.05 0.14 0.10 0.04 0.11 | 0.16 | 0 of 18 |
| GFTLNDYGIS | VIYSDGRRTFYKDSVK | GRAAGTFSS | 1.78 n.d. 3.07 1.26 3.07 1.45 | 2.13 | 0 of 18 |
| GFRLNSYGIS | VIYSDGRRTFYGDSVK | GQLAGTFDS | n.d. n.d. n.d. n.d. n.d. n.d. | n.d. | 0 of 18 |
| GFQLNQYGIS | VIYSDGRRTFYGDSVK | GRAAGTFDS | 0.32 0.40 0.29 0.67 -0.74 0.82 | 0.29 | 0 of 18 |
| GFTLNEYGIS | VIYSDGRRTFYADSVK | GREAGTFDS | n.d. n.d. n.d. n.d. 1.99 n.d. | 1.99 | 0 of 18 |
| GFTLKSYGIS | VIYADGRRTFYGDSVK | GQAAGTFSS | 0.97 1.80 1.66 1.55 1.95 n.d. | 1.59 | 0 of 18 |
| GFTLESYGIS | VIYSDGRRTFYSDSVK | GWAVGTFDS | n.d. n.d. n.d. n.d. n.d. n.d. | n.d. | 1 of 18 (0.10) |
| GFTLNEYGIS | VIYSDGRRTFYTDSVK | GRTAGTFDM | 0.49 0.91 1.00 0.35 0.81 0.86 | 0.74 | 0 of 18 |
| GFTLKSYGIS | VIYSDGRRTFYSDSVK | GQAGGTFDS | n.d. 1.35 1.01 0.73 1.37 1.15 | 1.12 | 0 of 18 |
| GFTLNEYGIS | VIYSDGRRTFYSDSVK | GHAAGTFDA | 0.10 0.14 0.08 -0.03 0.02 0.19 | 0.08 | 2 of 18 (2.72) |
| GFQLNSYGIS | VIYSDGRRTFYQDSVK | GRAAGTFDS | 1.76 1.93 n.d. 1.66 3.11 2.25 | 2.14 | 1 of 18 (1.68) |
| GFQLNEYGIS | VIYSDGRRTFYGDSVK | GRNAGTFIS | n.d. n.d. n.d. n.d. n.d. n.d. | n.d. | 0 of 18 |
| GFWLNEYGIS | VIYSDGRRTFYHDSVK | GRAAVTFDL | n.d. n.d. 2.32 n.d. n.d. n.d. | 2.32 | 0 of 18 |
| GFTLNDYGIS | VIYSDGRRTFYIDTVK | GNAAGTFDS | 0.75 0.65 1.29 0.86 0.34 1.12 | 0.83 | 0 of 18 |
| GFTLDSYGIS | VIYADGRRTFYGDSVK | GRAAGTFRS | n.d. n.d. n.d. n.d. n.d. 1.32 | 1.32 | 0 of 18 |
| GFDLNSYGIS | VIYSDGRRTFYHDSVK | GRAAGTFNS | 1.10 n.d. n.d. n.d. n.d. n.d. | 1.10 | 0 of 18 |
| GFSLNEYGIS | VIYSDGRRTFYSDAVK | GRCAGTFDS | 2.35 2.35 n.d. 1.87 n.d. 2.77 | 2.33 | 1 of 18 (2.00) |
| GFTLNDYGIS | VIYSDGRRTFYGDSVK | GKTAGTFIS | n.d. n.d. n.d. n.d. n.d. n.d. | n.d. | 0 of 18 |
| GYQLNSYGIS | VIYSDGRRTFYGDSVK | GRNAGTFDS | n.d. n.d. n.d. n.d. n.d. n.d. | n.d. | 0 of 18 |
| GFTLNEYGIS | VIYSDGRRTFYGDSVK | GRAAVTFAK | n.d. n.d. n.d. n.d. n.d. n.d. | n.d. | 0 of 18 |
| GFTLNEYGIS | VIYSDGRRTFYGDSVK | GKAAGTFDC | n.d. n.d. n.d. n.d. n.d. n.d. | n.d. | 0 of 18 |
| GFELNDYGIS | VIYSDGRRTFYADSVK | GRAAGTFDE | 0.20 1.11 0.60 1.26 -0.14 1.60 | 0.77 | 0 of 18 |
| GFGLNEYGIS | VIYSDGRRTFYKDSVK | GRAAGTFDS | n.d. n.d. 3.28 n.d. 1.97 n.d. | 2.62 | 0 of 18 |
| GFSLNSYGIS | VIYSDGRRTFYDDNVK | GQLAGTFDS | 0.71 0.76 0.76 0.35 0.32 0.52 | 0.57 | 0 of 18 |
| GYTLNEYGIS | VIYSDGRRTEYSDSVK | GRAAGTFDS | n.d. 1.73 n.d. n.d. n.d. n.d. | 1.73 | 0 of 18 |
| GFDLNSYGIS | VIYSDGRRTFYTDRVK | GEAAGTFDS | 0.55 -0.05 1.27 0.66 0.38 -0.16 | 0.44 | 0 of 18 |
| GFTLKSYGIS | VIYSDGRRTFYTDSVK | GKLAGTFDS | n.d. 2.00 2.50 2.24 n.d. n.d. | 2.25 | 0 of 18 |
| GFSLNEYGIS | VIYSDGRRTFYSDSVK | GPAAGTFDR | 3.13 n.d. n.d. n.d. n.d. n.d. | 3.13 | 0 of 18 |

A sequence measured in both rounds can read differently, since the two assays cover different ranges. The parent sequence was in this pool as ten entries: three were never detected, three once, and four in most replicates, with averages from 0.34 to 2.37. The authors' rule: three or more of the six replicates give a measured affinity, fewer mean a poor binder.